From patent US20150376271 (published 2015)

By UniProt entry, the sequences of proteins in these tests, tags left out. Chains listed by the source or under a name are the forms on record and can include a tag or linker.
UniProt P15692, other isoform, or with tags, fused parts or gaps: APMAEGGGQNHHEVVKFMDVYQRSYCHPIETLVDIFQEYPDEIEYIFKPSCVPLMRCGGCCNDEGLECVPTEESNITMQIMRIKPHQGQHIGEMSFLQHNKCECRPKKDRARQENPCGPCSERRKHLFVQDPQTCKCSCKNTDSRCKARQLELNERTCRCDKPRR

Target: VEGFA-165 (human, UniProt P15692)
Assay: competition

B1: ranibizumab (antibody)
chain 1: EVQLVESGGGLVQPGGSLRLSCAASGYDFTHYGMNWVRQAPGKGLEWVGWINTYTGEPTYAADFKRRFTFSLDTSKSTAYLQMNSLRAEDTAVYYCAKYPYYYGTSHWYFDVWGQGTLVTVSSASTKGPSVFPLAPSSKSTSGGTAALGCLVKDYFPEPVTVSWNSGALTSGVHTFPAVLQSSGLYSLSSVVTVPSSSLGTQTYICNVNHKPSNTKVDKKVEPKSCDKTHL
chain 2: not shown
IC50: 12.5 nM
